Measured values from US4735943A, “Eburnamonine oxime derivatives, salts thereof, and pharmaceutical agents containing the same” (Sanwa Kagaku Kenkyusho Co., Ltd., priority 1984, dated 1988).

Key:
[1] = in vivo; conditions: mouse, male mice, oral, mortality after 72 hours
[2] = tested on: d,d-mice; experiment: Cerebral Function Protection (recovery after rod dropped on vertex); type: in vivo, male; conditions: 10 mg/kg oral, 30 min before, negative values given as "not effective"
Method: (Cerebral Function Protection) To each of male d,d-mice (16-24 g, 6 to 24 animals/group), each of testing compounds was orally administered in an amount of 10 mg/kg. After 30 minutes from the administration, a cylindrical rod made of bakelite (diameter: 1 cm, weight: 36 g) was free dropped with a level height of 40 cm on a vertex of the mouse to hypnotize the same, in accordance with a method disclosed by […] et al ["Tyaku-no-Ayumi (The Progress in Medicines)", 104 (4), 253, 1978]. Observations were continued until a recovering reflex from the lethargy and a spontaneous motion appear to determine a reduction ratio of time period on such behavior appearances.

For CCOC(=O)C1=C[C@]2(CC)CCCN3CCc4c(n1c1ccccc41)[C@@H]32 [vinpocetine, reference compound], the LD50 at 72 h [1] was 796 mg/kg, the “Reduction ratio, time to appear spontaneous motion” value [2] was 40.4% and the “Reduction ratio, time to recover sit-up reflex” value [2] was 39.5%.
